In patent US20080287486A1, “Prokinetic agent for bowel preparation” (Theravance, Inc., priority 2007, published 2008) one finds prokinetic effect data, which are given here for one compound.

Molecules are shown by their SMILES.

The experiment concerns healthy subjects. Put plainly: Measurement of onset of bowel movement in healthy subjects (stool diary card, rising single doses). The note with it: human, in vivo. The procedure: Gelatin capsules were filled with up to 10 milligrams (free base equivalent) of 1-isopropyl-2-oxo-1,2-dihydroquinoline-3-carboxylic acid {(1S,3R,5R)-8-[(R)-2-hydroxy-3-(methanesulfonyl-methyl-amino)propyl]-8-aza-bicyclo[3.2.1]oct-3-yl}amide hydrochloride, the present prokinetic agent, prepared according to the method of Examples 1 and 2.
Subjects were dosed weekly with rising doses of the prokinetic agent (0.1 to 70 mg) or placebo in two alternating panels of 10 subjects and a third panel of 10 subjects. Subjects were monitored for safety and evidence of prokinetic effects using a stool diary card. Time and consistency (Bristol score) of each bowel movement were recorded.

In the case of `CC(C)n1c(=O)c(C(=O)N[C@H]2C[C@H]3CC[C@@H](C2)N3C[C@@H](O)CN(C)S(C)(=O)=O)cc2ccccc21` [compound 1, 1-isopropyl-2-oxo-1,2-dihydroquinoline-3-carboxylic acid {(1S,3R,5R)-8-[(R)-2-hydroxy-3-(methanesulfonyl-methyl-amino)propyl]-8-azabicyclo[3.2.1]oct-3-yl}amide], the prokinetic effect entry was “rapid and effective prokinetic effect”.
